Results from patent US12440610B2, “Coated medical devices and methods of inhibiting implant-associated infections” (UNIVERSITY OF CINCINNATI, priority 2017, dated 2025).

Test system: P. aeruginosa (strain 762)
Assay: In vitro bacterial adherence and colonization of coated implants, P. aeruginosa
Assay type: cell-based
Details: p<0.05
Protocol: Bacteria was prepared as in 2.3 and 1000 colony forming units (cfus) in 300 μL was placed in the wells of 96-well plates. […] Pieces were then placed in 10 mL sterile PBS and bath sonicated for 10 minutes to release adherent bacteria. Bacteria were quantified by the plate dilution method.

SMILES: O=C(N[C@H](CO)[C@H](O)c1ccc([N+](=O)[O-])cc1)C(Cl)Cl [Chloramphenicol]
- PA adherence to PTFE (in words) (coated PTFE): significantly reduced
- PA adherence to silk suture (in words) (coated silk suture): significantly reduced
